pEC50: −log10 of the molar value.
Target: GLP1R (Homo sapiens, UniProt P43220)
Assay: GLP1R cAMP assay (HTRF), HEK293/GLP-1R/CRE/Luc, Clone 4
Conditions: HEK293T cells (Table 1), concentration giving 50% of the compound's own maximum cAMP level

The chains behind the UniProt entries cited, without tags or fusion partners. Residues count along the entry.
UniProt P43220, 24-463 limits assumed: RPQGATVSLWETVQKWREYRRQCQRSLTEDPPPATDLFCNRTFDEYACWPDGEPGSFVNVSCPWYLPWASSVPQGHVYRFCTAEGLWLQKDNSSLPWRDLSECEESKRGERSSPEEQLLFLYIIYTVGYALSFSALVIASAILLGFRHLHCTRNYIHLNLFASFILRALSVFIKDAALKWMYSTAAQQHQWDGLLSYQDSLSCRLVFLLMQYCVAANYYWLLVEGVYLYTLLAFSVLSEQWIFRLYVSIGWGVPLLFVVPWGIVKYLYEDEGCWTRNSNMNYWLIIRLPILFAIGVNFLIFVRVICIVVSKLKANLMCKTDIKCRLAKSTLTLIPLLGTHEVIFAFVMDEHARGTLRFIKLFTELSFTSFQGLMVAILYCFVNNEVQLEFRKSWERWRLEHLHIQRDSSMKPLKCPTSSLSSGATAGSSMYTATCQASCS

Compound N#Cc1ccc(COc2cccc(-c3ccc(Oc4nc5ccc(C(=O)O)cc5n4C[C@@H]4CCO4)c(F)c3)n2)c(F)c1 has a pEC50 of 6.82 to 7.82.

From patent US10954221B2, “GLP-1R agonists and uses thereof” (QILU REGOR THERAPEUTICS INC., priority 2019, dated 2021)
